# Assay results as given in article PMC3348334 (Bioorganic & medicinal chemistry letters, 2012).
# Test system: AR levels in HeLa-AR3A-PSA-(ARE)4-Luc13 cells
# Experiment: Western blotting analysis of AR levels in cell lysates
smiles,measurement,setting,value
"O=C(O)c1cccc(Nc2ccc([N+](=O)[O-])c3ccccc23)c1 [Compound 2, 3-((4-nitronaphthalen-1-yl)amino)benzoic acid]",effect on DHT induced increase in AR levels,0.1 nM DHT present,inhibited in a concentration dependent manner
same,effect on AR levels in the absence of DHT,no DHT,reduced AR levels
